Results from patent US20250128113A1, “Decontamination Composition and Application Thereof” (published 2025).

Assay: Degradation of VX by CPO/H2O2 or H2O2 alone, GC-MS analysis

Substance: hydrogen peroxide
- residual amount of VX (H2O2 5 mM, CPO absent, after 5 min of reaction): 35.72±0.77%
- degrading rate of VX (non-catalytic reaction with H2O2, within 5 minutes): 60%
